{
  "sequences": {"note": "Amino acid sequences for entries named in this document (tags omitted). Residues count along the entry.", "UniProt Q03405, 23-305 limits assumed": "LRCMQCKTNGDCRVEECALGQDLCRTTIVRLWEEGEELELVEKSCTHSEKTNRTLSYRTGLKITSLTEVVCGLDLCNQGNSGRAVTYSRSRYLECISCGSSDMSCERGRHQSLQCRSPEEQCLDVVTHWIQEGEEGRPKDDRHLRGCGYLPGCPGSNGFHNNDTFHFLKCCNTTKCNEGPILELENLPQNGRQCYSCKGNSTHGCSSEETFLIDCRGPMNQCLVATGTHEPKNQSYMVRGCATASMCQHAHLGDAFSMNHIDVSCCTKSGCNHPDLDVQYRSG"},
  "source": "patent US10633374B2",
  "about": "“Small molecule based antibody-recruiting compounds for cancer treatment” (YALE UNIVERSITY, priority 2015, dated 2020)",
  "origin": "cited, not measured here",
  "target": "uPAR (Homo sapiens, UniProt Q03405)",
  "conditions": "in vitro; cited from earlier work",
  "data": [
    {"smiles": "O=C(O)c1cccc(Nc2cc(N3CCCCCC3)c3noc4c3c2C(=O)c2ccccc2-4)c1", "values": [
      {"measurement": "affinity for uPAR (literature)", "result": "triple digit nM affinity"}
    ]}
  ]
}
